Data: article PMC8705693, “Roles of the Na^+/H^+ Exchanger Isoform 1 and Urokinase in Prostate Cancer Cell Migration and Invasion” (International Journal of Molecular Sciences, 2021)

Protein sequences, listed by entry. Tags and fused reporters are not part of them.
UniProt P19634, whole entry: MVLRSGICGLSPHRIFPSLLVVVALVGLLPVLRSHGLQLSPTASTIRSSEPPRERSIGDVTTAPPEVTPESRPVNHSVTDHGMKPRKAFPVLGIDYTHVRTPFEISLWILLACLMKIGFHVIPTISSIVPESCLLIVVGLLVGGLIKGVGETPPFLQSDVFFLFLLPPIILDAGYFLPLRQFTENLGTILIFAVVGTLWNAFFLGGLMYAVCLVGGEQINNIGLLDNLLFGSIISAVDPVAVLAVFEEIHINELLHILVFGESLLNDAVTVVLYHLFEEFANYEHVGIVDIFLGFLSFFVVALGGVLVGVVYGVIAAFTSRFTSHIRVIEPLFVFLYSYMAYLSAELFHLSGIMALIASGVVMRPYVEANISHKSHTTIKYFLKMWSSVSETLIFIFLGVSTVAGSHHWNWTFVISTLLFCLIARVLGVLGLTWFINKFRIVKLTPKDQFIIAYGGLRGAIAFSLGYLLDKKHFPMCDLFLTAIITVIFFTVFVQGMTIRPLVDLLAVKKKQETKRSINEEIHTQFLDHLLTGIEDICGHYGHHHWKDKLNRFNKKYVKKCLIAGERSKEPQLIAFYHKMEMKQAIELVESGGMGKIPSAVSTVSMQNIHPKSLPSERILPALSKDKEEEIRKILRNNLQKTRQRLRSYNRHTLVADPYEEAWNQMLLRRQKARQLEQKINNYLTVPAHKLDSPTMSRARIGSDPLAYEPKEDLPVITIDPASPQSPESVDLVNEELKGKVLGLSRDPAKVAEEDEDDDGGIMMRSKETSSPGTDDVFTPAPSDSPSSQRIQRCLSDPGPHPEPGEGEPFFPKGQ

What was measured:
[1] = molecular target: NHE1 (Homo sapiens, UniProt P19634); assay: Na+/H+ exchanger activity, double ammonium chloride pulse assay in DU 145 cells; conditions: for IC50: read-out: Potency (IC50) towards NHE1, double-pulse assay
Procedure: (§1) We next tested the efficacy of a new family of NHE inhibitors on the activity of the NHE1 protein in DU 145 cells. In order to do this, we used a double-pulse assay, in which there were two consecutive ammonium-chloride-induced acidifications. The rate of recovery in the second pulse in the presence of the inhibitor was measured relative to that of the first pulse in the absence of the inhibitor. In control experiments, we observed that the second pulse, in the absence of the inhibitor, was equivalent to that of the first (Figure 3A). […] A summary of the results is shown in Figure 3C–G, [32] and a summary of the IC50 values can be found in Table 1. The various compounds tested had differing potencies towards NHE1 activity. […] EMD87580 was equivalent in potency to AA1-111 (0.45 µM). Figure 3C–G also show the inhibition of uPA activity for each compound on the same plots (red line), assayed as indicated in the Section 4. […] (Table 1).
Figure 3 Characterization of the effects of pharmacological compounds on the activity of the Na^+/H^+ exchanger using the double-pulse assay. Na^+/H^+ exchanger activity was determined as described in Figure 2 and in the Section 4, using a dual ammonium chloride pulse assay. The rate of recovery in the first pulse, in the absence of the drug, was measured. This was compared to the rate of recovery in the second pulse, in the presence of the drug. When both pulses were in the absence of the drugs, the two recoveries were equivalent. (A) A double-pulse assay; the second pulse was treated with vehicle only (no drug). (B) A double-pulse assay wherein the second pulse was in the presence of 10 µM BB2-50F. (C–G) A summary of the results of the double-pulse Na^+/H^+ exchanger assays (black line) for the compounds AA1-135, AA1-111, BB2-30F, BB2-50F, and EMD87580, respectively (IC50 values in Table 1). Additionally, the same figures (C–G) show the effects of these compounds on uPA activity (red line), assayed as describe d in the Section 4.
Intracellular pH was measured using 2′,7-bis(2-carboxyethyl)-5(6) carboxyfluorescein acetoxymethyl ester (BCECF-AM), in a similar manner to that described in [29]. DU 145 cells were grown to ~80–90% confluence on glass coverslips. Cells were loaded with BCECF and fluorescence was measured using a PTI Deltascan spectrofluorometer. NHE1 activity was measured after inducing an acute acid load using ammonium chloride. This was achieved by addition of ammonium chloride (50 mM × 3 min), followed by removal to induce acute acidosis. ΔpH/s was measured during the first 20 s of recovery in NaCl-containing medium (135 mM NaCl, 5 mM KCl, 1 mM MgCl2, 1.8 mM CaCl2, 5.5 mM glucose, and 10 mM HEPES, pH = 7.4, 37°). A calibration curve of pHi fluorescence was performed for every sample using nigericin [60]. For testing of the effects of inhibitors on NHE activity, a double ammonium chloride pulse protocol was used. Cells were subjected to one cycle of acidification using ammonium chloride, and then were allowed to recover in the absence of a drug, with vehicle where appropriate. Then, another cycle of acidification and recovery followed, with the drug present in both the sodium-free and normal recovery buffers. IC50 values were calculated as described previously. The measurements were highly reproducible, with activity in the second pulse averaging 98.2 +/− 7.15% of that in the first pulse. The results are the mean ± S.E. of at least seven experiments. The statistical significance was determined via the Wilcoxon–Mann–Whitney test.

[2] = system: established transformed human cell lines; conditions: read-out: half-maximal inhibition of cell viability; panel of established transformed human cell lines; cited from earlier work
[3] = molecular target: uPA (Homo sapiens, UniProt P00749); assay: uPA activity assay; conditions: for IC50: read-out: Potency (IC50) towards uPA
Procedure: as §1
Synthesis of NHE1/uPA inhibitors was as described previously, as was the determination of uPA activity, where each compound was described as the number in parentheses: BB2-50F (5), BB2-30F (26), AA1-111 (29), and AA1-135 (30).

[4] = system: DU 145 cells; assay: Cell growth assay (cell counting); conditions: 48 h, 10 µM
Procedure: Cell growth was measured in wild-type DU 145, NHE1-KO, and RI cells. Cells were plated into 24-well plates and grown in 10% serum medium overnight before assay, and were approximately 50% confluent. Four wells of growing cells were washed twice with PBS, and then 0.25% trypsin-EDTA was added to detach the cells. After brief centrifugation, the cell pellets were resuspended in 1 mL of medium, and then cells were counted with a microscope using a hemocytometer. The initial cell numbers were obtained during the day. The balance of the cells was detached 24 and 48 h later and counted using the same method. A minimum of four repeats were performed for each experiment; all treatments were replicated at least three times.

[5] = system: DU 145 cells; assay: Anchorage-dependent colony formation; conditions: 8 days
Procedure: To examine anchorage-dependent colony formation, we used 60 mm polystyrene dishes that had been coated to introduce hydrophilic groups producing a standard growth surface (Sarstedt, Numbrecht, Germany). To measure anchorage-dependent colony growth, the cells were plated into in the 60 mm dishes at a density of 1000 cells per dish. They were grown in complete growth media. To examine the effects of various compounds, 2–30 µM of the indicated drugs were added to culture dishes. An equal volume of DMSO (vehicle) alone was added to otherwise-untreated controls. After growth for 8 days, colonies were fixed in ice-cold methanol; they were stained with 0.5% crystal violet in methanol and washed, and then left to air-dry. The colonies of > 50 cells/colony were imaged and counted. The number of […] colonies was normalized to the number of control colonies and presented as a percentage of control colonies formed.

[6] = system: DU 145 cells; assay: Cell migration, wound-healing assay; conditions: for cell migration (gap closure): wild-type DU 145; for cell migration: DU 145
Procedure: Figure 4 Effects of NHE1-KO or NHE1 inhibition on cell migration examined in wild-type (WT) and NHE1-knockout (KO) DU 145 cells. The rate of closure of the induced gap was evaluated using the wound-healing assay, as described in the Section 4. (A) Examples of the effects of NHE1-KO on wound closure. Upper panel: example of WT DU 145 cells with gaps at 0 and 24 h. Middle panel: example of DU 145 NHE1 KO cells at 0 and 24 h. Lower panel: example of RI cell growth. (B) Summary of results; * indicates significant differences from the same group at 0 h, p < 0.05, n ≥ 6. (C,D) Effects of different concentrations of various NHE1/uPA inhibitors on migration (gap closure) of DU 145 cells. CT: control; EMD: EM87580; other compounds are as names. (C) Summary of the effects of 2 µM of various compounds on the migration of wild-type DU 145 cells. (D) Summary of the effects of 10 µM of various compounds on the migration of wild-type DU 145 cells (BB2-30F was used at 30 µM); * indicates significant differences from untreated control cells at p < 0.05.
Cell migration was studied using a wound-healing assay similar to that described in [13]. Briefly, cells were seeded in 12-well plates ([…]) the day before assay, and then grown to a confluent monolayer. A “scratch” was created in the cell monolayer with a p20 pipette tip in a straight line. The cells were washed twice with PBS to remove the debris, and the medium was changed to 2 mL of growth medium. To obtain the same field during image acquisition, three crosses were marked on the outside of each well as a reference. The scratch gaps above and below the crosses were measured. We acquired six images of the scratch for each well using a Leica DM IRB microscope (at 10× magnification). Arbitrary measurements of gap closure were quantified using Image-Pro Plus software. A minimum of six images/well and five measurements/image were acquired for each treatment; all treatments were repeated at least three times. Data shown are representative of the decrease in gap distance at 24 h, compared to the initial measurement at 0 h. Compounds were added at the indicated concentrations.

[7] = system: HT1080 cells; assay: Tumor cell invasion in vivo, chick chorioallantoic membrane model; conditions: final concentration 0.5 µM in chick embryo, intravenous
Procedure: Our next set of experiments used a different cell line and an in vivo model. We examined whether BB2-30F was capable of blocking tumor cell invasion from primary tumors in vivo, utilizing our previously established chick chorioallantoic membrane model of human cancer progression. HT1080 cells were allowed to grow tumors for 4 days, and the drug treatment with BB2-30F was started 1 day after tumor cell inoculation. […] In contrast, treatment with a final concentration of 0.5 µM BB2-30F produced near-complete inhibition of tumor cell invasion (Figure 7a,b).
Fertilized White Leghorn chicken eggs were obtained from the University of Alberta’s Poultry Research Centre and maintained in a humidified incubator at 38 °C. After four days of incubation, embryos were removed from their shells using a Dremel rotary tool with a cutting wheel. They were maintained as previously described under shell-less conditions, in a covered dish in a humidified air incubator at 38 °C and 60% humidity, until 10 days post-fertilization. […]
For imaging, a Nikon A1r upright confocal microscope (Nikon) fitted with a temperature-regulated enclosure and a 10× objective was used (591 nm laser). […] These experimental data were plotted and analyzed for statistical significance using the Prizm analysis module.

## N=C(N)NC(=O)c1nc(-c2cc3ccccc3o2)c(N2CCCCCC2)nc1N
[1]; 2 µM
  NHE1 inhibition (in words): only partial inhibition of NHE1
[1]; 10 µM, DU 145 cells
  rate of recovery after acute acidosis induced by ammonium chloride, second pulse in the presence of the inhibitor: greatly reduced
[1]; DU 145 cells
  IC50: 790 nM
[2]
  IC50: 4000 to 13000 nM
[3]
  inhibition of uPA activity (in words): much higher potency
  IC50: 240 nM
[3]; 2 µM
  uPA inhibition (in words): good inhibition of uPA
[4]
  growth of DU 145 cells: slight significant effect
[5]; 2 µM
  anchorage-dependent colony formation: not at 2 µM
[5]; 10 µM
  anchorage-dependent colony formation: inhibitory to colony formation
[6]; 10 µM, 12 h
  cell migration (gap closure): slight but non-significant effects
[6]; 10 µM, 24 h
  cell migration (gap closure): significant

## N=C(N)NC(=O)c1nc(Cl)c(N2CCOCC2)nc1N
[1]; 2 µM
  NHE1 inhibition (in words): complete NHE1 inhibition
[1]; 10 µM
  NHE1 inhibition (in words): completely inhibited NHE1
[1]; DU 145 cells
  IC50: 450 nM
[3]
  inhibition of uPA activity (in words): lower potency
  IC50: 12100 nM
[3]; 2 µM
  uPA inhibition (in words): minimal inhibition of uPA
[3]; 10 µM
  uPA inhibition (in words): only minimal inhibition of uPA activity
[5]; 10 µM
  anchorage-dependent colony formation: no effect
[6]; 2 µM, 12 h
  cell migration (gap closure): significantly slowed cell migration
[6]; 2 µM, 24 h
  cell migration (gap closure): not statistically significant
[6]; 2 µM
  cell migration: reduced cell migration slightly
[6]; 10 µM, 12 h
  cell migration (gap closure): slight but non-significant effects

## COc1ncc(-c2nc(C(=O)NC(=N)N)c(N)nc2N2CCCCCC2)cn1
[7]
  tumor cell invasion from primary tumors: near-complete inhibition of tumor cell invasion
[1]; 2 µM
  NHE1 inhibition (in words): low inhibition of NHE1
[1]; 10 and 30 µM
  NHE1 inhibition (in words): only partial
[1]; DU 145 cells
  IC50: 7200 nM
[3]
  inhibition of uPA activity (in words): much higher potency
  IC50: 90 nM
[3]; 2 µM
  uPA inhibition (in words): good inhibition of uPA
[3]; 10 and 30 µM
  uPA inhibition (in words): typically complete
[5]; 10 µM
  anchorage-dependent colony formation: inhibited colony formation
[5]; 30 µM
  anchorage-dependent colony formation: inhibited colony formation
[6]; 30 µM, 12 and 24 h
  cell migration (gap closure): only very slight, non-significant effects

## N=C(N)NC(=O)c1nc(Cl)c(N2CCCOCC2)nc1N
[1]; 2 µM
  NHE1 inhibition (in words): complete NHE1 inhibition
[1]; 10 µM
  NHE1 inhibition (in words): completely inhibited NHE1
[1]; DU 145 cells
  IC50: 90 nM
[3]
  inhibition of uPA activity (in words): lower potency
  IC50: 5100 nM
[3]; 2 µM
  uPA inhibition (in words): minimal inhibition of uPA
[3]; 10 µM
  uPA inhibition (in words): only minimal inhibition of uPA activity
[5]; 10 µM
  anchorage-dependent colony formation: no effect
[6]; 2 µM
  cell migration: lack of effect
[6]; 10 µM, 12 h
  cell migration (gap closure): slight but non-significant effects
[6]; 10 µM, 24 h
  cell migration (gap closure): only very slight, non-significant effects
